For 13 compounds, IC50 and Kd results are on record in patent US20240108738A1, “BICYCLIC PEPTIDE LIGANDS SPECIFIC FOR NK CELLS” (Bicycle Tx Limited, priority 2021, published 2024).

Usually IC50 stands for the concentration that inhibits the measured activity by half. Lower therefore signals inhibition by little substance. What is called Kd is a measure of binding affinity in units of concentration.

What all share (assay type): binding
The target of assay [1] is T1, CD16a/FCgRIIIa (F158 variant) (Homo sapiens, UniProt P08637).
T1 construct: host or cells: HEK293
Nature of the assay: CD16a/FCgRIIIa HTRF assay (IgG competition on HEK293 cells). On the technique in general: Time-resolved FRET reads energy transfer from a long-lived donor to a nearby acceptor.

For a further assay, the target named is CD16a (V Variant) (Homo sapiens, UniProt P08637, F176V). Nature of the assay: FcγRIII (CD16a) SPR (Method A and/or Method B), V variant.
The next assay addresses CD16a (F Variant) (Homo sapiens, UniProt P08637). Nature of the assay: FcγRIII (CD16a) SPR (Method A and/or Method B), F variant.

As for `CC(C)[C@@H]1NC(=O)[C@H](CO)NC(=O)[C@H](Cc2c[nH]c3ccccc23)NC(=O)[C@H](CCCNC(=N)N)NC(=O)[C@@H](NC(=O)[C@H](C)N)CSCc2nc3nc(n2)CSC[C@H](NC(=O)[C@@H]2CCCN2C(=O)[C@H](CC(=O)O)NC(=O)[C@H](CCC(=O)O)NC1=O)C(=O)NCC(=O)N[C@@H](C)C(=O)N[C@@H](Cc1c[nH]c2ccccc12)C(=O)N[C@H](C(=O)N[C@@H](C)C(N)=O)CSC3` [BCY14950, A-(SEQ ID NO: 61)-A], the IC50 in assay [1] is 2.03 ± 0.635 µM.

Turning to `CC(C)[C@@H]1NC(=O)[C@H](CO)NC(=O)[C@H](Cc2c[nH]c3ccccc23)NC(=O)[C@H](CCCNC(=N)N)NC(=O)[C@@H](NC(=O)[C@H](C)N)CSCc2nc3nc(n2)CSC[C@H](NC(=O)[C@@H]2CCCN2C(=O)[C@H](CC(C(=O)O)C(=O)O)NC(=O)[C@H](CCC(=O)O)NC1=O)C(=O)NCC(=O)N[C@@H](C)C(=O)N[C@@H](Cc1c[nH]c2ccccc12)C(=O)N[C@H](C(=O)N[C@@H](C)C(N)=O)CSC3` [BCY16608, A-(SEQ ID NO: 179)-A], the IC50 in assay [1] was found to be 1.8 µM.

Turning to `C[C@H](N)C(=O)N[C@H]1CSCc2nc3nc(n2)CSC[C@H](NC(=O)[C@@H]2CCCN2C(=O)[C@H](CC(=O)O)NC(=O)[C@H](CC(=O)O)NC(=O)[C@@H]2CCCN2C(=O)[C@H](Cc2ccc(O)cc2)NC(=O)[C@H](Cc2c[nH]c4ccccc24)NC(=O)[C@H](CCCNC(=N)N)NC1=O)C(=O)NCC(=O)N[C@@H](C)C(=O)N[C@@H](Cc1c[nH]c2ccccc12)C(=O)N[C@H](C(=O)N[C@@H](C)C(N)=O)CSC3` [BCY19033, A-(SEQ ID NO: 182)-A], the Kd on CD16a (V Variant) turned out to be 0.421 ± 0.133 µM. In assay [1], the half-maximal inhibitory concentration (IC50) stood at 1.42 µM.

For `CC(C)[C@@H]1NC(=O)[C@H](Cc2c[nH]cn2)NC(=O)[C@H](Cc2c[nH]c3ccccc23)NC(=O)[C@H](CC(N)=O)NC(=O)[C@@H](NC(=O)[C@H](C)N)CSCc2nc3nc(n2)CSC[C@H](NC(=O)[C@@H]2CCCN2C(=O)[C@H](CCC(=O)O)NC(=O)[C@H](Cc2ccc(O)cc2)NC1=O)C(=O)NCC(=O)N[C@@H](C)C(=O)N[C@@H](Cc1c[nH]c2ccccc12)C(=O)N[C@H](C(=O)N[C@@H](C)C(N)=O)CSC3` [BCY19035, A-(SEQ ID NO: 184)-A], the dissociation constant Kd turned out to be 1.11 µM on CD16a (V Variant) and 4 µM on CD16a (F Variant). Also, in assay [1], the IC50 is 2.01 µM.

Take `CC(C)[C@@H]1NC(=O)[C@H](Cc2c[nH]cn2)NC(=O)[C@H](Cc2c[nH]c3ccccc23)NC(=O)[C@H](CC(N)=O)NC(=O)[C@@H](NC(=O)[C@H](C)N)CSCc2nc3nc(n2)CSC[C@H](NC(=O)[C@@H]2CCCN2C(=O)[C@H](CCC(=O)O)NC(=O)[C@H](Cc2ccc(O)cc2)NC1=O)C(=O)NCC(=O)N[C@@H](C)C(=O)N[C@@H](Cc1c[nH]c2ccccc12)C(=O)N[C@H](C(=O)N[C@@H](C)C(=O)NCC(=O)N[C@@H](C)C(=O)N[C@@H](C)C(=O)N[C@@H](C)C(=O)N[C@@H](CCC(=O)O)C(N)=O)CSC3` [BCY19042, A-(SEQ ID NO: 190)-AGAAAE]: the values for the dissociation constant (Kd) on CD16a (V Variant) and at CD16a (F Variant) were 1.37 µM and 4.27 µM, respectively.

With `C[C@H](N)C(=O)N[C@H]1CSCc2nc3nc(n2)CSC[C@H](NC(=O)[C@@H]2CCCN2C(=O)[C@H](CCC(=O)O)NC(=O)[C@H](CO)NC(=O)[C@H](Cc2ccccc2)NC(=O)[C@H](Cc2ccc(O)cc2)NC(=O)[C@H](Cc2c[nH]c4ccccc24)NC(=O)[C@H](CCCNC(=N)N)NC1=O)C(=O)NCC(=O)N[C@@H](C)C(=O)N[C@@H](Cc1c[nH]c2ccccc12)C(=O)N[C@H](C(=O)N[C@@H](C)C(N)=O)CSC3` [BCY20364, A-(SEQ ID NO: 210)-A], the Kd at CD16a (V Variant) was found to be 1.37 µM; on CD16a (F Variant), 4.15 µM.

Take `C[C@H](N)C(=O)N[C@H]1CSCc2nc3nc(n2)CSC[C@H](NC(=O)[C@@H]2CCCN2C(=O)[C@H](CCC(=O)O)NC(=O)[C@H](CO)NC(=O)[C@H](Cc2ccccc2)NC(=O)[C@H](CO)NC(=O)[C@H](Cc2c[nH]c4ccccc24)NC(=O)[C@H](CCCNC(=N)N)NC1=O)C(=O)NCC(=O)N[C@@H](C)C(=O)N[C@@H](Cc1c[nH]c2ccccc12)C(=O)N[C@H](C(=O)N[C@@H](C)C(N)=O)CSC3` [BCY20365, A-(SEQ ID NO: 211)-A]: the dissociation constant (Kd) on CD16a (V Variant) was found to be 3.49 µM; at CD16a (F Variant), 6.79 µM.

With `C[C@H](N)C(=O)N[C@H]1CSCc2nc3nc(n2)CSC[C@H](NC(=O)[C@@H]2CCCN2C(=O)[C@H](CCC(=O)O)NC(=O)[C@H](CO)NC(=O)[C@@H]2CCCN2C(=O)[C@H](Cc2ccc(O)cc2)NC(=O)[C@H](Cc2c[nH]c4ccccc24)NC(=O)[C@H](CCCNC(=N)N)NC1=O)C(=O)NCC(=O)N[C@@H](C)C(=O)N[C@@H](Cc1c[nH]c2ccccc12)C(=O)N[C@H](C(=O)N[C@@H](C)C(N)=O)CSC3` [BCY20367, A-(SEQ ID NO: 213)-A], the values for the equilibrium dissociation constant (Kd) at CD16a (V Variant) and at CD16a (F Variant) were 0.473 µM and 1.67 µM, respectively.

Turning to `C[C@H](N)C(=O)N[C@H]1CSCc2nc3nc(n2)CSC[C@H](NC(=O)[C@@H]2CCCN2C(=O)[C@H](CCC(=O)O)NC(=O)[C@H](CC(=O)O)NC(=O)[C@@H]2CCCN2C(=O)[C@H](Cc2c[nH]cn2)NC(=O)[C@H](Cc2c[nH]c4ccccc24)NC(=O)[C@H](CCCNC(=N)N)NC1=O)C(=O)NCC(=O)N[C@@H](C)C(=O)N[C@@H](Cc1c[nH]c2ccccc12)C(=O)N[C@H](C(=O)N[C@@H](C)C(N)=O)CSC3` [BCY20368, A-(SEQ ID NO: 214)-A], the Kd came out at 0.531 µM at CD16a (V Variant) and 1.43 µM on CD16a (F Variant).

Regarding `C[C@H](N)C(=O)N[C@H]1CSCc2nc3nc(n2)CSC[C@H](NC(=O)[C@@H]2CCCN2C(=O)[C@H](CCC(=O)O)NC(=O)[C@H](CC(=O)O)NC(=O)[C@H](Cc2ccccc2)NC(=O)[C@H](Cc2c[nH]cn2)NC(=O)[C@H](Cc2c[nH]c4ccccc24)NC(=O)[C@H](CCCNC(=N)N)NC1=O)C(=O)NCC(=O)N[C@@H](C)C(=O)N[C@@H](Cc1c[nH]c2ccccc12)C(=O)N[C@H](C(=O)N[C@@H](C)C(N)=O)CSC3` [BCY20370, A-(SEQ ID NO: 216)-A], the Kd at CD16a (V Variant) turned out to be 0.639 µM; on CD16a (F Variant) it was 1.27 µM.

In the case of `C[C@H](N)C(=O)N[C@H]1CSCc2nc3nc(n2)CSC[C@H](NC(=O)[C@@H]2CCCN2C(=O)[C@H](CC(=O)O)NC(=O)[C@H](CC(=O)O)NC(=O)[C@H](Cc2ccccc2)NC(=O)[C@H](Cc2c[nH]cn2)NC(=O)[C@H](Cc2c[nH]c4ccccc24)NC(=O)[C@H](CCCNC(=N)N)NC1=O)C(=O)NCC(=O)N[C@@H](C)C(=O)N[C@@H](Cc1c[nH]c2ccccc12)C(=O)N[C@H](C(=O)N[C@@H](C)C(N)=O)CSC3` [BCY20371, A-(SEQ ID NO: 217)-A], the Kd at CD16a (V Variant) was determined as 1.8 µM; at CD16a (F Variant), 2.15 µM.

For `C[C@H](N)C(=O)N[C@H]1CSCc2nc3nc(n2)CSC[C@H](NC(=O)[C@@H]2CCCN2C(=O)[C@H](CCC(=O)O)NC(=O)[C@H](CC(=O)O)NC(=O)[C@H](Cc2ccccc2)NC(=O)[C@H](Cc2ccc(O)cc2)NC(=O)[C@H](Cc2c[nH]c4ccccc24)NC(=O)[C@H](CCCNC(=N)N)NC1=O)C(=O)NCC(=O)N[C@@H](C)C(=O)N[C@@H](Cc1c[nH]c2ccccc12)C(=O)N[C@H](C(=O)N[C@@H](C)C(N)=O)CSC3` [BCY20372, A-(SEQ ID NO: 218)-A], the results for the Kd at CD16a (V Variant) and at CD16a (F Variant) were 0.869 µM and 2.41 µM, respectively.

`C[C@H](N)C(=O)N[C@H]1CSCc2nc3nc(n2)CSC[C@H](NC(=O)[C@@H]2CCN2C(=O)[C@H](CCC(=O)O)NC(=O)[C@H](CO)NC(=O)[C@H](CCc2ccccc2)NC(=O)[C@H](Cc2c[nH]cn2)NC(=O)[C@H](Cc2c[nH]c4ccccc24)NC(=O)[C@H](CCCNC(=N)N)NC1=O)C(=O)NCC(=O)N[C@@H](C)C(=O)N[C@@H](Cc1c[nH]c2ccccc12)C(=O)N[C@H](C(=O)N[C@@H](C)C(N)=O)CSC3` [BCY21689, A-(SEQ ID NO: 268)-A] showed an IC50 in assay [1] of 1.24 µM.
